Data from PubChem BioAssay AID651640 (Broad Institute, 2012).
The list shows a part of the results, in another mix than the full data. Some of these compounds have results that are not shown, active ones among them. Results filed as inconclusive are left out. Calls of active or inactive are those of the source. Rule as the data show it: active = CPE inhibition above about 20% (passing the limit was not always enough); inconclusive = no clear call, values can overlap the other calls; tested in BHK-21 cells.

Assay: inhibitors of DENV2 cytopathic effect, primary screen, cell-based, plate reader, single concentration (AID 651640);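 also: 0% = median of neutral control wells and 100% = median of positive control wells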
Conditions: DENV2-infected cells, cytopathic effect rescue, at 9.99 µM, hits give high values

SMILES | CPE inhibition
O=C(NCC1(N2CCCCC2)CCCCC1)c1cc([N+](=O)[O-])ccc1Cl | inactive: -4.88%
CN1[C@@H]2CC[C@H]1CC(OC(=O)C(O)(c1ccccc1)c1ccccc1)C2 (some centres not stated) | inactive: 16.9%
COc1cc(SC)ccc1C(=O)NCC1(N(C)C)CCCCC1 | inactive: 16%
CCN(CC)CC(C)C(C)OC(=O)C(O)(c1ccccc1)c1ccccc1 (configuration not stated) | inactive: -6.84%
Cc1ccc(C(=O)NCC2(N3CCCCC3)CCCCC2)cc1 | inactive: 3.36%
CN(C)C1CCCC1OC(=O)C(O)(c1ccccc1)c1ccccc1 (configuration not stated) | inactive: 11.6%
CN(C)c1ccc(C(=O)NCC2(N(C)C)CCCCC2)cc1 | inactive: 1.54%
Cc1ccccc1C(=O)NCC1(N2CCCCC2)CCCCC1 | inactive: 9.44%
O=C(NCC1(N2CCCCC2)CCCCC1)c1cc(F)c(F)cc1Cl | inactive: 6.48%
C=CCN1CCN(CCOC(=O)C(O)(c2ccccc2)c2ccccc2)CC1 | inactive: -6%
COc1ccc(C(=O)NCC2(N(C)C)CCCCC2)cc1 | inactive: -0.698%
O=C(NCC1(N2CCCCC2)CCCCC1)c1cccc(Br)c1 | inactive: 3.72%
Cc1cc(C(=O)NCC2(N3CCCCC3)CCCCC2)ccc1[N+](=O)[O-] | inactive: 6.77%
CN(C)C1(CNC(=O)c2ccc(Br)cc2)CCCCC1 | inactive: -0.137%
COc1cc(C(=O)NCC2(N(C)C)CCCCC2)c([N+](=O)[O-])cc1OC | inactive: 8.03%
COc1ccc(Cl)cc1C(=O)NCC1(N(C)C)CCCCC1 | inactive: -0.842%
COc1cccc(C(=O)NCC2(N3CCCCC3)CCCCC2)c1 | inactive: 3.66%
O=C(NCC1(N2CCCCC2)CCCCC1)c1cccc(Cl)c1 | inactive: -4.79%
C=C(C)C#CC(O)(C(=O)OC1CCN(C)CC1)c1ccccc1 (configuration not stated) | inactive: 13.4%
COc1ccc(Br)c(C(=O)NCC2(N3CCCCC3)CCCCC2)c1 | inactive: 1.06%
O=C(OCCN1CCCC1)C(O)(c1ccccc1)c1ccccc1 | inactive: -0.121%
CC(C)Oc1ccc(C(=O)NCC2(N(C)C)CCCCC2)cc1 | inactive: 0.0395%
